Screens from PubChem BioAssay.
Hits are enriched below; roughly 2.2% of the tested compounds scored in any of these assays.
UUG fidelity: yeast start codon fidelity modulation. S. cerevisiae UUG-firefly luciferase reporter, luminescence/redox ratio. activity score, % at 18.7 µM. 0.13% of 350,000 active;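 active = replicate mean at a twofold rise or more, about +100% in these data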;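 also: firefly luciferase made from a UUG start codon reports start codon fidelity; reporter light over untreated wells divided by growth signal over untreated wells; some hits fall short of that in this replicate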
FGF22 binding: shifts melting point of recombinant human FGF22; Q9HCT0; recombinant FGF22 thermal shift, SYPRO orange fluorescence; percent of sucrose octasulfate shift, DMSO zero; activity (Tm shift, normalised), % at 9.99 µM; 340,000 tested, 1.5% active; AID 651658;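 active means mean Tm shift, scaled 0 neutral to 100 positive control, at about 1.3% or above, every replicate too, limit read from the data; inconclusive means no clear call, values can overlap the other calls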
SIRT5 inh: sirtuin-5 (human) deacylase inhibition; Q9NXA8; Purified SirT5, succinyl-peptide AMC, trypsin-coupled fluorescence; inhibition, % at 15 µM; 330,000 tested, 1.1% active; in the data active means inhibition above about 15%; inconclusive means no clear call, values can overlap the other calls
S100A4 MyoIIA: blocks human S100A4 binding to myosin IIA peptide | P26447 | S100A4/TAMRA-MyoIIA peptide fluorescence polarization | inhibition, % at 10.7 µM | 360,000 tested, 0.14% active | AID 652163;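 active means mean inhibition of at least 70% across replicates, with every replicate also reaching that level; inconclusive means mean inhibition reaches 70% but some replicates fall short; inactive means mean inhibition below 70%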
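Test system: S100A4 monomer protein. Medium: HEPES buffer with Ca2+, pH 7.2. Reagent: fluorescent myosin IIA peptide, 5 nM. Compound dosing: single-point compound testing. Timing: 5 min between mix addition and reading. Benchmarks: DMSO neutral and TFP positive wells.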
PDI turbidity: PDI (human) enzyme inhibition; P07237; PDI insulin aggregation turbidity, A650, 90 min; inhibition, % at 10 µM; 350,000 tested, 0.052% active;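 active means mean inhibition across replicates of 30% or more, whatever share of single replicates reach that level; inconclusive means mean inhibition below 30% while every single replicate reaches 30%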
ERp5 inh: blocks human ERp5 reductase activity on insulin | 350,000 tested, 0.05% active | inhibition, % at 9.99 µM | ERp5 insulin aggregation, absorbance 650 nm, 90 min | Q15084 | AID 651711;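 active means mean replicate inhibition above about 25%, with every replicate also reaching it, limit read from the data, passing the limit was not always enough; inconclusive means only one of those two criteria met; inactive means neither criterion met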
Of the large screens only hits and unclear results are named; the others gave an inactive call; ! = a repeat was not active.

COc1cc2c(cc1OC)CN(C(=O)[C@@H]1[C@H]3C(=O)O[C@H](c4ccccc4)[C@H](c4ccccc4)N3[C@H](c3ccc(OCCO)cc3)[C@@]13C(=O)Nc1ccc(C#CCNC(N)=O)cc13)CC2	SIRT5 inh 22.9 (no result: PDI turbidity)
NC(=O)NCC#Cc1ccc2c(c1)[C@]1(C(=O)N2)[C@H](c2ccc(OCCO)cc2)N2[C@H](c3ccccc3)[C@H](c3ccccc3)OC(=O)[C@H]2[C@@H]1C(=O)O	none (no result: UUG fidelity, PDI turbidity)
O=C1O[C@@H](c2ccccc2)[C@@H](c2ccccc2)N2[C@@H](c3ccc(OCCO)cc3)[C@]3(C(=O)Nc4ccc(C#CC5=CCCCC5)cc43)[C@@H](C(=O)N3CCN(c4ncccn4)CC3)[C@H]12	none (no result: PDI turbidity)
O=C1O[C@@H](c2ccccc2)[C@@H](c2ccccc2)N2[C@@H](c3ccccc3OCCO)[C@]3(C(=O)Nc4ccc(C#CC5=CCCCC5)cc43)[C@@H](C(=O)N3CCN(c4ncccn4)CC3)[C@H]12	SIRT5 inh 16.5 (no result: FGF22 binding, PDI turbidity)
Cc1ccc(S(=O)(=O)Nc2ccc3c(c2)C(=O)N([C@@H](C)CO)C[C@@H](C)[C@@H](CN(C)S(=O)(=O)c2ccc(C)cc2)OCCCC[C@H](C)O3)cc1	none (no result: PDI turbidity)
COCC(=O)N1CC2(C1)[C@@H](c1ccccc1)[C@@H](CO)N2Cc1ccccc1OC	none (no result: UUG fidelity, PDI turbidity)
C[C@@H]1CN([C@H](C)CO)C(=O)CCCn2nncc2CO[C@H]1CN(C)S(=O)(=O)c1ccc(Cl)cc1	SIRT5 inh 18.5!
C[C@@H]1CN([C@@H](C)CO)C(=O)CCCn2nncc2CO[C@@H]1CN(C)S(=O)(=O)c1ccc(Cl)cc1	none
C[C@@H]1CN([C@@H](C)CO)C(=O)CCCn2nncc2CO[C@H]1CN(C)Cc1ccc(Cl)c(Cl)c1	SIRT5 inh 16.0!
C[C@H]1CN([C@@H](C)CO)C(=O)CCCn2nncc2CO[C@@H]1CN(C)C(=O)c1ccc2ccn(C)c2c1	SIRT5 inh 37.6!
Cc1ccccc1S(=O)(=O)N(C)C[C@H]1OCc2cnnn2CCCC(=O)N([C@@H](C)CO)C[C@H]1C	none
C[C@@H]1CN([C@H](C)CO)C(=O)CCCn2nncc2CO[C@@H]1CN(C)C(=O)c1ccc2ccn(C)c2c1	none (no result: PDI turbidity)
Cc1ccccc1S(=O)(=O)N(C)C[C@@H]1OCc2cnnn2CCCC(=O)N([C@@H](C)CO)C[C@H]1C	S100A4 MyoIIA 111.8!
C[C@@H]1CN([C@H](C)CO)C(=O)Cc2cc(NS(=O)(=O)c3ccccc3)ccc2O[C@@H]1CN(C)CC1CC1	none (no result: PDI turbidity)
CO[C@H]1CN(C)C(=O)c2ccc(NC(=O)C3CC3)cc2OC[C@H](C)N(C(=O)c2ccncc2)C[C@H]1C	none (no result: UUG fidelity, PDI turbidity)
CN(C)C(=O)C[C@H]1C=C[C@H](NC(=O)C2CCOCC2)[C@@H](CO)O1	ERp5 inh inconclusive (no result: UUG fidelity, FGF22 binding, PDI turbidity)
CC(=O)N1CCCCN2[C@H](CO)[C@@H](c3ccc(-c4ccc(C)cc4)cc3)[C@H]2C1	none (no result: PDI turbidity)
CCCNC(=O)C[C@H]1CC[C@H]2[C@H](COc3ccc(NC(=O)Cc4ccccc4)cc3C(=O)N2C)O1	none (no result: PDI turbidity)
C[C@@H]1CN([C@H](C)CO)C(=O)CCCn2nncc2CO[C@@H]1CN(C)S(=O)(=O)c1ccc2ccccc2c1	S100A4 MyoIIA 93.1!
CCOc1ccccc1CNC(=O)c1cc2occc2n1C	S100A4 MyoIIA 183.4
COC(=O)[C@]1(Cc2ccccc2)N[C@H](CN(C)C(=O)c2ccc(C)cc2)[C@@H]2C(=O)N(C)C(=O)[C@@H]21	FGF22 binding 43.4 (no result: SIRT5 inh)
COC(=O)[C@]1(Cc2ccccc2)N[C@H](CN(C)C(=O)c2ccc(F)cc2)[C@@H]2C(=O)N(C)C(=O)[C@@H]21	FGF22 binding 42.9 (no result: SIRT5 inh)
COC(=O)[C@]1(Cc2ccccc2)N[C@H](CN(C)C(=O)COc2ccccc2)[C@@H]2C(=O)N(C)C(=O)[C@@H]21	FGF22 binding 43.0 (no result: SIRT5 inh)
COC(=O)[C@]1(Cc2ccccc2)N[C@H](CN(C)C(C)=O)[C@@H]2C(=O)N(C)C(=O)[C@@H]21	none (no result: SIRT5 inh)
CC(C)NC(=O)Nc1ccc2c(c1)C(=O)N([C@@H](C)CO)C[C@H](C)[C@H](CN(C)S(C)(=O)=O)O2	none (no result: UUG fidelity, FGF22 binding, PDI turbidity)
O=C([C@H]1[C@H](CO)[C@H]2Cn3c(ccc(-c4ccccc4)c3=O)[C@@H]1N2)N1CCCCC1	none (no result: UUG fidelity, PDI turbidity)
O=C(Nc1cc(F)ccc1F)N1CC(=O)N2[C@H](CO)[C@@H](c3ccc(-c4ccc(F)cc4)cc3)[C@@H]2C1	none (no result: UUG fidelity, FGF22 binding, PDI turbidity)
COc1ccccc1S(=O)(=O)N[C@@H]1CC[C@H](CCNC(=O)C2CC2)O[C@H]1CO	none (no result: PDI turbidity)
COc1ccc(C#Cc2ccc3c(c2)O[C@H](CN(C)C(=O)Nc2cccc(OC)c2)[C@H](C)CN([C@@H](C)CO)S3(=O)=O)cc1	none (no result: PDI turbidity)
COc1ccc(C#Cc2ccc3c(c2)O[C@@H](CN(C)C(=O)Nc2cccc(OC)c2)[C@H](C)CN([C@@H](C)CO)S3(=O)=O)cc1	SIRT5 inh 16.1!
COc1cccc(NC(=O)N(C)C[C@@H]2Oc3cc(C#Cc4ccccc4)ccc3S(=O)(=O)N([C@@H](C)CO)C[C@H]2C)c1	none (no result: SIRT5 inh, S100A4 MyoIIA, PDI turbidity, ERp5 inh)
COc1cccc(NC(=O)N(C)C[C@H]2Oc3cc(C#Cc4ccccc4)ccc3S(=O)(=O)N([C@@H](C)CO)C[C@H]2C)c1	FGF22 binding 1.4 (no result: SIRT5 inh, S100A4 MyoIIA, PDI turbidity, ERp5 inh)
CC(=O)N/N=C(\C)c1ccc2c(c1)OCCO2	FGF22 binding 43.1 (no result: UUG fidelity)
C[C@@H](O)C#Cc1ccc([C@H]2[C@@H](CO)N3CCCCN(S(=O)(=O)c4ccccc4)C[C@H]23)cc1	none (no result: FGF22 binding, SIRT5 inh, S100A4 MyoIIA, PDI turbidity, ERp5 inh)
Oc1c(Br)cc(/C=N/n2c(-c3ccccc3)n[nH]c2=S)c(O)c1Br	none (no result: FGF22 binding, SIRT5 inh, S100A4 MyoIIA, ERp5 inh)
Cc1c(Br)c(O)c(Br)c(O)c1/C=N/n1c(-c2ccccc2)n[nH]c1=S	SIRT5 inh 29.8 (no result: FGF22 binding)
COc1ccc2c3c([nH]c2c1)[C@@H](CO)NCC31CN(C(=O)C2CCCC2)C1	none (no result: UUG fidelity, PDI turbidity)
c1ccn2cc(-c3ccc4c(c3)OCCO4)nc2c1	FGF22 binding 43.0 (no result: UUG fidelity)
Cc1ccc2nc(-c3ccc4c(c3)OCCO4)cn2c1	none
CCS(=O)(=O)N1CC2(C1)[C@@H](c1ccccc1)[C@H](CO)N2C(=O)C1CCCC1	none (no result: UUG fidelity, FGF22 binding, PDI turbidity)
CC1C/C(=N/Nc2nc3ccccc3[nH]2)CC(C)(C)C1 (stereo unspecified)	FGF22 binding 43.4 (no result: UUG fidelity)
Cn1nc(SCc2ccccc2)c(=O)n(C(c2ccccc2)c2ccccc2)c1=O	none (no result: UUG fidelity, SIRT5 inh)
Cn1nc(SCc2ccccc2)c(=O)[nH]c1=O	FGF22 binding 43.2 (no result: SIRT5 inh)
C[C@H]1CN([C@@H](C)CO)C(=O)c2cc(C3=CCCCC3)cnc2O[C@@H]1CN(C)C(=O)C1CCOCC1	none (no result: PDI turbidity)
COc1ccc(C2=Nn3c(nnc3-c3ccccc3F)SC2)cc1OC1CCOC1 (stereo unspecified)	none (no result: SIRT5 inh)
COc1ccc(C2=Nn3c(nnc3-c3ccccc3F)SC2)cc1OC1CCCC1	SIRT5 inh 20.1
Cc1cc(C)n(-c2ccc(C(=O)OCn3nnc4ccccc4c3=O)cc2)n1	none (no result: FGF22 binding)
